The values below come from ChEMBL document CHEMBL6182862, “Discovery of novel azetidine-based imidazopyridines as selective and orally bioavailable inhibitors of phosphodiesterase 10A for the treatment of pulmonary arterial hypertension” (Eur J Med Chem, 2025).

The chains behind the UniProt entries cited, without tags or fusion partners. Where a name states a change or a piece, a line headed by the entry shows the natural chain unless it says otherwise.
UniProt O76083: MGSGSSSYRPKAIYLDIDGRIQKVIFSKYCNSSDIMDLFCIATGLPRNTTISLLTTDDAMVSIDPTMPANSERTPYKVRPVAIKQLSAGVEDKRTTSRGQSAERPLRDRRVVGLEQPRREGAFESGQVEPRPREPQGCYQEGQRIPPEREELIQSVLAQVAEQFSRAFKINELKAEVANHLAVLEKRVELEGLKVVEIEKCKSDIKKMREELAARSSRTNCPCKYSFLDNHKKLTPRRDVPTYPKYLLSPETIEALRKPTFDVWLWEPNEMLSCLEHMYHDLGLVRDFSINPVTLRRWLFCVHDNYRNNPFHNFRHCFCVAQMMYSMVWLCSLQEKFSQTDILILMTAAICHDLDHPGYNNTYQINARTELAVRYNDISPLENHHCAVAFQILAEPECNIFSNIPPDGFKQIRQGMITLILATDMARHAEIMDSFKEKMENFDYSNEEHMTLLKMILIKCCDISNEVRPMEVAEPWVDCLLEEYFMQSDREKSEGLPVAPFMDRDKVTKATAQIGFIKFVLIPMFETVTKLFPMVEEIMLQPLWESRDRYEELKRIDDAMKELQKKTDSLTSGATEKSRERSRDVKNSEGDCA
UniProt Q14432: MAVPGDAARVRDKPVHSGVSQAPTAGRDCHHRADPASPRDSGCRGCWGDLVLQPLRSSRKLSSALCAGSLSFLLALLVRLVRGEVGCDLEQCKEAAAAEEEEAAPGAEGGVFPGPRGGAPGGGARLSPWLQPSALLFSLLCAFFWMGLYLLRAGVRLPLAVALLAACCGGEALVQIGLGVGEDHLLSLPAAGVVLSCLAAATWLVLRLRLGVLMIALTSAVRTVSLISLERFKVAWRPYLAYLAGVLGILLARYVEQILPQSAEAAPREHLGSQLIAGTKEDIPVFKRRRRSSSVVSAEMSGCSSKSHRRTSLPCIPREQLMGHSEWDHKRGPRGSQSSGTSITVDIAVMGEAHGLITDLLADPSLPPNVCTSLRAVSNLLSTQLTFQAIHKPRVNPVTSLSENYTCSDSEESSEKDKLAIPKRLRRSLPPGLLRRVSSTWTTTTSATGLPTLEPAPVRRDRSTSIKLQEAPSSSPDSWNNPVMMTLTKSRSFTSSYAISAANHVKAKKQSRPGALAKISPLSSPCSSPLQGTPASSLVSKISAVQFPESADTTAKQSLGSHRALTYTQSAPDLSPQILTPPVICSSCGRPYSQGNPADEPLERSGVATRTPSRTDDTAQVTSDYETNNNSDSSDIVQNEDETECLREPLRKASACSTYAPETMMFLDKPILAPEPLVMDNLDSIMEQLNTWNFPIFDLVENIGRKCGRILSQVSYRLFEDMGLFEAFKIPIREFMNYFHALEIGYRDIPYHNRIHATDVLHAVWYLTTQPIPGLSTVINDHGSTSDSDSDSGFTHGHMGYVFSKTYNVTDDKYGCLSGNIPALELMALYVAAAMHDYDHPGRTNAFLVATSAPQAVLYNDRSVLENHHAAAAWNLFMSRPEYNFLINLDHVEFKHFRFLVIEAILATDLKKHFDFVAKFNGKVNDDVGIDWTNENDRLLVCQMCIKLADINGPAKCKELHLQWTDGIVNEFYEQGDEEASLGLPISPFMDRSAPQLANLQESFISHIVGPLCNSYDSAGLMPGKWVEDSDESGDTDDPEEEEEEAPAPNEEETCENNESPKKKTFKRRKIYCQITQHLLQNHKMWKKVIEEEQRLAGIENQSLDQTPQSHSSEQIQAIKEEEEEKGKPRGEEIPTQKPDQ
UniProt Q13946: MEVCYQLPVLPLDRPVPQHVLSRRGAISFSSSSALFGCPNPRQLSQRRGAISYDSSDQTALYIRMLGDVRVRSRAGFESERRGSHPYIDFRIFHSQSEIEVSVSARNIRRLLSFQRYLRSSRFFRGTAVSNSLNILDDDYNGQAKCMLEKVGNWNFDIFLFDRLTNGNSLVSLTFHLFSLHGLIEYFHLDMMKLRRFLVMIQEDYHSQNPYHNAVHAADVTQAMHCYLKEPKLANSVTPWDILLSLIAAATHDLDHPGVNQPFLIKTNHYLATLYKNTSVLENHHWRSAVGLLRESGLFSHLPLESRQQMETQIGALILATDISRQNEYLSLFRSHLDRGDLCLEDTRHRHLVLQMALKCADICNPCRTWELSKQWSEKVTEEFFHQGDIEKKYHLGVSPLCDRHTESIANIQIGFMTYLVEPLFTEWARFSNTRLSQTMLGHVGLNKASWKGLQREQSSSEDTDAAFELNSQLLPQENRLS
UniProt O00408, whole entry: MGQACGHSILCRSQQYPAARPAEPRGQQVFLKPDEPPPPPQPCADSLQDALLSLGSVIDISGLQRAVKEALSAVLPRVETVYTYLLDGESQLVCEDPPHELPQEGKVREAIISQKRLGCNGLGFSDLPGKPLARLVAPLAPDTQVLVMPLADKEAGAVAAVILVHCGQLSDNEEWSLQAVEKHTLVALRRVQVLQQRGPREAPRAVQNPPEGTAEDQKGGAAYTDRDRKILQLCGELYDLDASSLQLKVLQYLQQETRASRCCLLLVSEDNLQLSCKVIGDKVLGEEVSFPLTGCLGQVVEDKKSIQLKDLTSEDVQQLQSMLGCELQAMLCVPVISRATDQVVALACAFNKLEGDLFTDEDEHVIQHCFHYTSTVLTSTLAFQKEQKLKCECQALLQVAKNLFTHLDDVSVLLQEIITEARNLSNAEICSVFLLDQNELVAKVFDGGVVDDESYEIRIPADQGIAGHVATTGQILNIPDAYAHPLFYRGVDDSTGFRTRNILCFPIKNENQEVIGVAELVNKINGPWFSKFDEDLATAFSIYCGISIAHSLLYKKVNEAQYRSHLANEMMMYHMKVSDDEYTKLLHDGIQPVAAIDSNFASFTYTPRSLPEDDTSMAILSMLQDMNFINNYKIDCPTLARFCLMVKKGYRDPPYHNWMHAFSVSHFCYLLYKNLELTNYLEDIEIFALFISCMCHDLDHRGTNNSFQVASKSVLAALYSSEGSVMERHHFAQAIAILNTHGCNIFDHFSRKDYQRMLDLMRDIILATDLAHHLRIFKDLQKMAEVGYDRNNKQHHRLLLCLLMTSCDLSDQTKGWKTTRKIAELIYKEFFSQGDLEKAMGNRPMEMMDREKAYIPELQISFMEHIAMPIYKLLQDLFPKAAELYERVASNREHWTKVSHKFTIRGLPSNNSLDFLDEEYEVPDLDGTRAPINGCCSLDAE
UniProt O60658: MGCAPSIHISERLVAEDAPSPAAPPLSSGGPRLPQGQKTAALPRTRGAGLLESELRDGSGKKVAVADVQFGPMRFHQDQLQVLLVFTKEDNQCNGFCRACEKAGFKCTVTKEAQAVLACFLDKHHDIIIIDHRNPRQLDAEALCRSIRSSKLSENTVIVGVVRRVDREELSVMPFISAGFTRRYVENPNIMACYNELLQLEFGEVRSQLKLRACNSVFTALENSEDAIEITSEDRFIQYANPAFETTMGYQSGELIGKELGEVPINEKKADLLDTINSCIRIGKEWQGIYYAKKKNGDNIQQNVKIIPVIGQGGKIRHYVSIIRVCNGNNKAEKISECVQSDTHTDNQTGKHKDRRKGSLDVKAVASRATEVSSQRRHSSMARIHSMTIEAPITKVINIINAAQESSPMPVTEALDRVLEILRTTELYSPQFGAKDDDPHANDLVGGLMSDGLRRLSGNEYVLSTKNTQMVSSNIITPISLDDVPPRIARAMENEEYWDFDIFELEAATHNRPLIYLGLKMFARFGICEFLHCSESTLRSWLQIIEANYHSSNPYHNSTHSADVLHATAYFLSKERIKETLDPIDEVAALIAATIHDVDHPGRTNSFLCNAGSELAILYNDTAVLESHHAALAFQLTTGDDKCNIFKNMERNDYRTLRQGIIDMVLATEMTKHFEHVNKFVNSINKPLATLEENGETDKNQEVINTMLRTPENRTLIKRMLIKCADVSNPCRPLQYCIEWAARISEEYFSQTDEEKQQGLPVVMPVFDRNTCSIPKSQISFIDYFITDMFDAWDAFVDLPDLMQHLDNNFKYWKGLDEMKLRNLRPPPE
UniProt Q9HCR9: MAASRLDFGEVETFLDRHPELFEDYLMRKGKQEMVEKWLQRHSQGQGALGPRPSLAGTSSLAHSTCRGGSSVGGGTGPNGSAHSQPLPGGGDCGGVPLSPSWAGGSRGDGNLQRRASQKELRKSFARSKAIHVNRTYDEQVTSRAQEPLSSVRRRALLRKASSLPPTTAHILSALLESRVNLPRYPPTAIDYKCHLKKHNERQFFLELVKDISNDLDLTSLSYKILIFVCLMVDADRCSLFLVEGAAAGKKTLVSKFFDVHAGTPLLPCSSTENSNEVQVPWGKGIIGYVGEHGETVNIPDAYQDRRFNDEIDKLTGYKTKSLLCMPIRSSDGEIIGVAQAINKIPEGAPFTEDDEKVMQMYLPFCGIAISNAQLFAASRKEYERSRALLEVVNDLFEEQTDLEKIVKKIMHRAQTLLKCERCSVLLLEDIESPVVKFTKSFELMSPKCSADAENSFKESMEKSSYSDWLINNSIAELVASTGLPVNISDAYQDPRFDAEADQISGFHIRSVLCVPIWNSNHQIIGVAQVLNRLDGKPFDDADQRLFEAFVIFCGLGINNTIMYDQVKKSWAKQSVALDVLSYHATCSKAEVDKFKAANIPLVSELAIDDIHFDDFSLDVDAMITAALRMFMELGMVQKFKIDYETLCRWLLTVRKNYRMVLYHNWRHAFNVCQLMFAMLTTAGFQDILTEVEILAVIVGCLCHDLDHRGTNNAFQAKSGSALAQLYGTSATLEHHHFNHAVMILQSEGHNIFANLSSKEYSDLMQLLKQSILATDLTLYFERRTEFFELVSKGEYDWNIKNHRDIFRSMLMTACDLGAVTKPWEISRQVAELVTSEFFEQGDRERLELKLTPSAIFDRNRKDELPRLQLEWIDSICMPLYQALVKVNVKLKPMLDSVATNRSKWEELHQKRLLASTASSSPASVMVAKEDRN
UniProt Q14123, whole entry: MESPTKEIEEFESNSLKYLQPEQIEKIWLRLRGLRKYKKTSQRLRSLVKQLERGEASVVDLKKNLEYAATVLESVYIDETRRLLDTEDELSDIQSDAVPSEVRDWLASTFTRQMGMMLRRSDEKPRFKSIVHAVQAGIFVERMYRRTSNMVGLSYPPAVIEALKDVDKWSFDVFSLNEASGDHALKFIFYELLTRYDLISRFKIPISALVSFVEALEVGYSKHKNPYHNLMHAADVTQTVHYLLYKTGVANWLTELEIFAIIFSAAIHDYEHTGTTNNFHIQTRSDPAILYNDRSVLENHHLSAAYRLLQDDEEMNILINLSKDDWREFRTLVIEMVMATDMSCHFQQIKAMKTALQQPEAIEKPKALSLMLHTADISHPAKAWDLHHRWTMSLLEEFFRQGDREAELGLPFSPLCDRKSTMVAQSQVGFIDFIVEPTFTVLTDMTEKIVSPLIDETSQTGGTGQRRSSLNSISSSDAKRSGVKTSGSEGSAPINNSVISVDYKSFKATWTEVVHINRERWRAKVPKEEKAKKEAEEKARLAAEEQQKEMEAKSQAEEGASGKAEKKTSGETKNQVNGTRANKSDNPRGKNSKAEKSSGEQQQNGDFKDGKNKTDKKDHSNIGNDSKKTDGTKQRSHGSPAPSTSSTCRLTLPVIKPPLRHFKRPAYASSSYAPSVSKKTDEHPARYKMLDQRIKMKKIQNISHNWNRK

The subject of one experiment is Rattus norvegicus. The experiment in a line: Anti-pulmonary arterial hypertension in monocrotaline-induced pulmonary hypertension Sprague-Dawley rat model assessed as decrease in RVSP level at 5 mg/kg, po administered via gavage for 3 weeks and measured on day 22. The conditions noted are these: time 22.0 day. In kind it is functional, organism-based.
For experiment [1], the target named is High affinity cGMP-specific 3',5'-cyclic phosphodiesterase 9A (Homo sapiens, UniProt O76083). Kind of experiment: Inhibition of recombinant PDE9A (unknown origin) using 3H-cGMP as substrate at 10 micromol/L relative to control. The note with it: dose 10.0 µmol/L.
Experiment [2] concerns the target cGMP-specific 3',5'-cyclic phosphodiesterase (Homo sapiens, UniProt O76074). The experiment in a line: Inhibition of PDE5A (unknown origin) using 3H-cGMP as substrate at 10 micromol/L relative to control. The note with it: dose 10.0 µmol/L.
Experiment [3] deals with cGMP-inhibited 3',5'-cyclic phosphodiesterase 3A (Homo sapiens, UniProt Q14432). Kind of experiment: Inhibition of PDE3A (679 to 1087 residues) (unknown origin) using 3H-cAMP as substrate at 10 micromol/L relative to control. The conditions noted are these: dose 10.0 µmol/L.
The target in experiment [4] is High affinity 3',5'-cyclic-AMP phosphodiesterase 7A (Homo sapiens, UniProt Q13946). Kind of experiment: Inhibition of PDE7A (unknown origin) using 3H-cAMP as substrate at 10 micromol/L relative to control. The note with it: dose 10.0 µmol/L.
Experiment [5] concerns the target cGMP-dependent 3',5'-cyclic phosphodiesterase (Homo sapiens, UniProt O00408). Kind of experiment: Inhibition of PDE2A (580 to 919 residues) (unknown origin) using 3H-cGMP as substrate at 10 micromol/L relative to control. The conditions noted are these: dose 10.0 µmol/L.
For experiment [6], the target named is High affinity cAMP-specific and IBMX-insensitive 3',5'-cyclic phosphodiesterase 8A (Homo sapiens) (UniProt O60658). Kind of experiment: Inhibition of PDE8A (unknown origin) using 3H-cAMP as substrate at 10 micromol/L relative to control. The conditions noted are these: dose 10.0 µmol/L.
Experiment [7] has as its target Dual 3',5'-cyclic-AMP and -GMP phosphodiesterase 11A (Homo sapiens, UniProt Q9HCR9). Kind of experiment: Inhibition of PDE11A (unknown origin) using 3H-cGMP/3H-cAMP as substrate at 10 micromol/L relative to control. The note with it: dose 10.0 µmol/L.
Experiment [8] deals with Dual specificity calcium/calmodulin-dependent 3',5'-cyclic nucleotide phosphodiesterase 1C (Homo sapiens, UniProt Q14123). The experiment in a line: Inhibition of PDE1C (147 to 531 residues) (unknown origin) using 3H-cGMP/3H-cAMP as substrate at 10 micromol/L relative to control. The conditions noted are these: dose 10.0 µmol/L.

Active and inactive are the calls of the source. The calls are words filed in the database; no cut-off is given here.

Take `Cn1cc(-c2ccncc2)c(-c2ccc(OCc3ccc4ccccc4n3)cc2)n1`: the result in the experiment with Rattus norvegicus was Active.
Regarding `CCOC(=O)c1c(C2CN(c3cc(C(=O)NCCN(CC)CC)c4ccccc4n3)C2)nc2ccccn12`, the inhibition in [1], in experiment [2], in experiment [3], in experiment [4], in experiment [5] and in [6] was below 50% in each case. In addition, the inhibition in [7] and in experiment [8] was below 50% each time.
Turning to `CN1CC(=O)N2[C@H](c3ccc4c(c3)OCO4)c3[nH]c4ccccc4c3C[C@@H]2C1=O`, the result with Rattus norvegicus was Active.
